By UniProt entry, the sequences of proteins in these tests, tags left out. Where a name states a change or a piece, a line headed by the entry shows the natural chain unless it says otherwise.
UniProt G1T8E2: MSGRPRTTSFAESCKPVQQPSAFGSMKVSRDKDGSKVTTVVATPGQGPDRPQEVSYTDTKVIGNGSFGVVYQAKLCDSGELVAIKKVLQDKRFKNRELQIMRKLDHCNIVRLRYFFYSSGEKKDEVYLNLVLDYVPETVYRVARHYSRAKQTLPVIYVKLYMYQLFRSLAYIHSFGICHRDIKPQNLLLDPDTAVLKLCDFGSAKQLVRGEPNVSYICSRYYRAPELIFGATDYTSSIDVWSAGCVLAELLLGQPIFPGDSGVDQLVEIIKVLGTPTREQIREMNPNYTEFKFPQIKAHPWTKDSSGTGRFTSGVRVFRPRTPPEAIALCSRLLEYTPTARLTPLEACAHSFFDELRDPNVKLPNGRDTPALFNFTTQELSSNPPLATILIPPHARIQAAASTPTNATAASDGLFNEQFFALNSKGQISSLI

In BindingDB's records for 14561081 (Instituto De Quimica Medica (Csic), 2003):

Molecular target: Glycogen synthase kinase-3 beta [7-25] (Oryctolagus cuniculus, UniProt G1T8E2)

Row | Structure (SMILES) | IC50 [nM]
1 | O=C(CBr)c1ccc([N+](=O)[O-])cc1 | 2000
2 | COc1ccc(C(=O)CBr)cc1 | 1000
3 | O=C(CBr)c1ccc(Cl)cc1 | 1000
